Measurements taken from patent publication US20100190832A1, “Mechanism-based inhibitors of transthyretin amyloidosis: studies with biphenyl ethers and structural templates” (NATIONAL INSTITUTE OF IMMUNOLOGY., priority 2008, published 2010).
Where two headings read alike, the source gives them in different places.

Assays:
TTR = biological target: T1, TTR (Homo sapiens, UniProt P02766); experiment: Dissociation constant by fluorescence titration (Adair equation, two sites); format: binding
T1 construct: made in house
Procedure: (§1) The experiments were conducted at 25° C. After 1 h, the samples were diluted with 0.5 mL of 200 mM sodium acetate buffer pH 4.4 containing 100 mM KCl and 1 mM EDTA, vortexed, and incubated at 37° C. for 72 h. […] The stoichiometry of the binding of the inhibitors was determined by HPLC as described by Green et al., N. S. Palaninathan, S, L, Sacchettini, J. e. […] Dissociation constant of binding of these compounds to TTR was determined by fluorescence titration, and data were fitted into the Adair equation for two bind mg.
Small aliquots of 1 mM ligands solutions were successively added to the […] in 100 mM sodium acetate buffer pH 4.4 at […] under constant stirring. After each addition sample was left for 2 min. […] Readings were corrected for buffer blank, dilution and inner filter effect. The inner filter effect was corrected by using the following equation,
From the titration data the dissociation constant was determined by fitting data in following Adair equation for two binding sites-

WT-TTR = biological target: T2, WT-TTR (Homo sapiens, UniProt P02766); experiment: Stagnant acid-mediated TTR aggregation (fibril formation) assay, turbidity at 340 nm; format: biochemical
T2 construct: made in house
Procedure: Stagnant Acid-Mediated TTR Aggregation Assay.
After 1 h, the samples were diluted with 0.5 ml of 200 mM sodium acetate buffer containing 100 mM KCl and 1 mM EDTA. Samples after mild vortexing were incubated at 37° C. for the desired amount of time without stirring to evaluate the efficacy of the inhibitors. The extent of aggregation was probed by turbidity measurements at 340 nm using Tecan GENios microplate reader. […] The extent of TTR fibril formation in the absence of inhibitor was defined to be 100%. […] All experiments were done in triplicate. […] The IC50 was determined by plotting mean of % inhibition vs log and fitted to sigmoid equation:
as §1

Oc1cc(Cl)ccc1Oc1ccc(Cl)cc1Cl [Compound 1, Triclosan, reference compound]
Kd (TTR): 0.19 µM | Kd (TTR; pH 4.4, text, read-out: dissociation constant Kd1): 144 µM | IC50 (WT-TTR; 50% reduction in fibril formation, TTR 7.2 μM, pH 4.4, read-out: IC50 ± SE): 53.5 ± 7.01 µM | IC50 (WT-TTR; Table 3, WT-TTR 7.2 μM, read-out: IC50): 53.5 µM
